The record followed here is PubChem BioAssay AID2250 (Sanford-Burnham Center for Chemical Genomics, 2010).

For the experiment, the system named is MCF-7/NOD1 cells, GM-Tri-DAP induced IL-8 secretion. Kind of experiment: inhibition of NOD1-driven IL-8 release, SAR follow-up, MCF-7/NOD1 cells, GM-Tri-DAP stimulus (AID 2250).

Active and inactive are the calls of the source. How the calls were made is not given here.

Turning to `COc1ccc(S(=O)(=O)n2c(N)nc3ccccc32)cc1`, the IC50 (commonly the point on the concentration scale where inhibition reaches its midpoint) was 3.13 µM.

Turning to `Nc1nc2ccccc2n1S(=O)(=O)c1ccccc1`, the IC50 was 2.41 µM. The figure for `Cc1ccc(S(=O)(=O)n2cnc3ccccc32)cc1` is inactive: > 5 µM.
